Patent US9765082B2, “Crystalline form of tiotropium bromide with lactose” (EUTICALS SPA, priority 2014, dated 2017)

How the values were obtained:
[1] = Stability of the crystalline form on storage, analyzed by DRX (powder); assay type: physicochemical; details: for Crystalline form by DRX (powder), 1st month: 1 month; for Crystalline form by DRX (powder), 2nd month: 2 months; for Crystalline form by DRX (powder), 3rd month: 3 months
Method: (§1) X-Ray Diffraction spectra were registered by means of diffractometer (Rigaku-D-Max) from a start angle [½ 2-theta] of 5.000 to 60.000. The diffraction diagrams were obtained employing a Cu anode (Kα=1,54060 Å and Kα=1,54439 Å). The HPLC method utilized to check the quality of Tiotropium Bromide in the examined samples is the same as described in the European Pharmacopoeia 7.0.
Tiotropium Bromide Cocrystal obtained according to the Example 1 was analyzed by DRX (powder) at 1, 2 and 3 months in the following storage conditions in order to verify the stability of this crystalline form.

[2] = Micronization by air jet mill: particle size distribution and solid state by DRX; assay type: physicochemical
Excerpt: as §1
A sample of Tiotropium Bromide Cocrystal obtained according to Example 1 was micronized using the air jet mill technique in order to verify if this physical treatment affected the quality and the solid state of this product. The obtained analytical results (particle size distribution and chemical purity determined by HPLC) are shown in Table 3; the DRX data of the micronized material confirm that the solid state is not changed after micronization (FIG. 5).

[3] = before / after air jet mill micronization

Substance: Tiotropium Bromide cocrystal with lactose
- Crystalline form by DRX (powder), 1st month ([1]; Amber glass at 25° C.): Unchanged
- Crystalline form by DRX (powder), 2nd month ([1]; Amber glass at 25° C.): Unchanged
- Crystalline form by DRX (powder), 3rd month ([1]; Amber glass at 25° C.): Unchanged
- Crystalline form by DRX (powder), 1st month ([1]; Amber glass at 40° C.): Unchanged
- Crystalline form by DRX (powder), 2nd month ([1]; Amber glass at 40° C.): Unchanged
- Crystalline form by DRX (powder), 3rd month ([1]; Amber glass at 40° C.): Unchanged
- Crystalline form by DRX (powder), 1st month ([1]; Polyethylene bag 25° C./60% UR): Unchanged
- Crystalline form by DRX (powder), 2nd month ([1]; Polyethylene bag 25° C./60% UR): Unchanged
- Crystalline form by DRX (powder), 3rd month ([1]; Polyethylene bag 25° C./60% UR): Unchanged
- Solid state after micronization (DRX) ([2]; air jet mill, FIG. 5): not changed
- D10 (particle size distribution) [2, 3]: 2.03 microns
- D50 (particle size distribution) [2, 3]: 16.6 microns
- D90 (particle size distribution) [2, 3]: 178 microns
